From US7425537B2, “SH2 domain binding inhibitors” (The United States of America as represented by the …, priority 2000, dated 2008) come the findings set out here.

Protein sequences, listed by entry. Tags and fused reporters are not part of them. Residues count along the entry.
UniProt P62993, 60-152 limits assumed: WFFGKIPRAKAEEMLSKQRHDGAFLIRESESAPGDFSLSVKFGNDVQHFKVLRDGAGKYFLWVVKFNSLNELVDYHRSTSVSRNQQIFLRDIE

Where two headings read alike, the source gives them in different places.

The target of this assay is Grb2 SH2 domain (recombinant Grb2 SH2-GST fusion protein; SHC-derived phosphopeptide) (Homo sapiens, UniProt P62993).

As a reminder, the IC50 is the concentration that gives 50% inhibition. For `NC(=O)C[C@H](NC(=O)C1(NC(=O)[C@H](Cc2ccc(CP(=O)(O)O)cc2)NC(=O)C(=O)O)CCCCC1)C(=O)NCCCc1cccc2ccccc12`, the IC50 (read-out: IC50, extracellular ELISA GrB2 SH2 domain binding assay (FIG. 24), FIG. 24, no unit printed in legend) amounted to 3 nM and the IC50 (read-out: IC50, extracellular ELISA assay of Grb2 SH2 domain binding inhibitors (FIG. 17), FIG. 17) stood at 10 nM.

Turning to `NC(=O)C[C@H](NC(=O)C1(NC(=O)CCc2ccc(CP(=O)(O)O)cc2)CCCCC1)C(=O)NCCCc1cccc2ccccc12`, the 50% inhibitory concentration (IC50) (read-out: IC50, Grb2 SH2 domain protein, ELISA (FIG. 11), FIG. 11, n=3) was 2000 nM.
